In the test the target is I218V bsNOS (Bacillus subtilis (strain 168), UniProt O34453, I218V). In words: Imidazole displacement, spectral binding constant KS. Here is the method: Purified bsNOS was diluted to 2 μM into a buffered solution containing 50 mM Tris (pH 7.6), 10 mM NaCl, 100 μM dithiothreitol and 1 mM imidazole to generate a low spin heme. NOS inhibitors were titrated into the bsNOS-buffered solution and the conversion of the heme group from low spin to high spin was monitored using a Cary 3E UV-visible spectrophotometer.

Protein sequences, listed by entry. Tags and fused reporters are not part of them.
UniProt O34453, whole entry I218V: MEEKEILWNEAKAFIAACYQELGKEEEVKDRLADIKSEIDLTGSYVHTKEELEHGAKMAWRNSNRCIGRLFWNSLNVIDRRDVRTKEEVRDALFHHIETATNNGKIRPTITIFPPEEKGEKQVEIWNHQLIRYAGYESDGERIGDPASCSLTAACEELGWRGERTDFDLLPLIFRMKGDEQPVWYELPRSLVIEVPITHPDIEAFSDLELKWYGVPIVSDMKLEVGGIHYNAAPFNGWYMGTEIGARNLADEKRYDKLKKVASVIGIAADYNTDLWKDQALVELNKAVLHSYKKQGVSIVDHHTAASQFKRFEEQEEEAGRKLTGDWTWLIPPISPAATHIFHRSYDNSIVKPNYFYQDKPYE

For `Cc1cc(N)nc(-c2ccc(CNCCc3cccc(F)c3)cc2)c1` [Compound 27, 6-(4-(((3-Fluorophenethyl)amino)methyl)phenyl)-4-methylpyridin-2-amine], the “fold tighter binding to Ile-218 (WT) over I218V” value is 5-6 fold.

The record behind these values is patent US10759791B2, “Mammalian and bacterial nitric oxide synthase inhibitors” (Northwestern University, priority 2014, dated 2020).
